Patent US10106526B2, “Inhibitors of cyclin-dependent kinase 7 (CDK7)” (SYROS PHARMACEUTICALS, INC., priority 2014, dated 2018)

Chains of the proteins cited; added tags and fusions are not shown.
UniProt P50613, whole entry: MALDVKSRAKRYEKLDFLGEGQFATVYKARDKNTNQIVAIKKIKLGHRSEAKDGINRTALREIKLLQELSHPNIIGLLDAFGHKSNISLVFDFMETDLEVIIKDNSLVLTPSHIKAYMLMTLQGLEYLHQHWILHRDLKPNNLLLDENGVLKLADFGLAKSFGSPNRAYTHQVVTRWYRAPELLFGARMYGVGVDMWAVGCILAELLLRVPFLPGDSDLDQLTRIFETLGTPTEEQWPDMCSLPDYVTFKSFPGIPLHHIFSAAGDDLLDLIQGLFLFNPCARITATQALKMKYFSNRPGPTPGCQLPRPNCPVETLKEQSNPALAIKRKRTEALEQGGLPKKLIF
UniProt P51946, whole entry partner: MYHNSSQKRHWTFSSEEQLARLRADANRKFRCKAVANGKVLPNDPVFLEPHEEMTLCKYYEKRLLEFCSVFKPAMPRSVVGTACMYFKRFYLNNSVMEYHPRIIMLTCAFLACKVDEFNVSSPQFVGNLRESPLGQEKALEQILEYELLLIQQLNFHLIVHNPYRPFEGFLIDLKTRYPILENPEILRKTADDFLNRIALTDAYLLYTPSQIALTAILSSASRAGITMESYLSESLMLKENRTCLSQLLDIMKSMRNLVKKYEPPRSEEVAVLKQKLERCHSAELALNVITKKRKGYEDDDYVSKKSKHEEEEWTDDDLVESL
UniProt P51948, whole entry partner: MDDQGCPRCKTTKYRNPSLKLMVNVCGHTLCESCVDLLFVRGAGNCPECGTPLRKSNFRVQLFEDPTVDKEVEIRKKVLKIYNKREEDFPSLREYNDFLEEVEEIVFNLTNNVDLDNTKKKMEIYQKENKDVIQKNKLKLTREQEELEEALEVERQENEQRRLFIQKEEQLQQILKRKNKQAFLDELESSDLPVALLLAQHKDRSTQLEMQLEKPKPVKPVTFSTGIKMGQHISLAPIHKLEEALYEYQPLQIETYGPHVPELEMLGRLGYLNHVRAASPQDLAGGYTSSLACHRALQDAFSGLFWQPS

What was measured:
A673 cells = assay: Inhibition of proliferation of A673 cells (CyQUANT, 72 hour); details: read-out: A673 IC50, 72 hour proliferation
Protocol: A673 cells are a cell line derived from human muscle Ewing's sarcoma. Representative compounds of the invention were tested at different concentrations (from 4 μM to 126.4 pM; 0.5 log serial dilutions) for their ability to inhibit the proliferation of A673 cells. Known CDK inhibitors flavopiridol and triptolide were used as positive controls. Cells were grown in Dulbecco's Modified Eagle's Medium, +10% FBS+1 mM Sodium Pyruvate. The cells were cultured at 37° C. in a humidified chamber in the presence of 5% CO2. Proliferation assays were conducted over a 72 hour time period. CyQUANT® (Life Technologies, Chicago, Ill. USA) was used to assess the anti-proliferative effects of the compounds following manufacturer's directions and utilizing the reagents supplied with the CyQUANT® kit. In this table, “A” represents an IC50 of less than 500 nM; “B” an IC50 of between 500 nM and 5 μM; and “C” an IC50 of greater than 5 μM.

[1] = target: CDK7/Cyclin H/MAT1 trimeric complex (Homo sapiens, UniProt P50613); assay: CDK7 kinase assay, Caliper/LabChip EZ Reader (Biortus Biosciences); details: read-out: CDK7 Inhibition (IC50), CDK7/Cyclin H/MAT1 10 nM, ATP 2 mM, FAM-CDK7tide 2 μM, 30 min incubation
CDK7 = CDK7 (Homo sapiens, UniProt P50613); assay: CDK7 kinase activity, Adapta kinase assay (Life Technologies); details: read-out: CDK7 Inhibition (IC50); Adapta kinase assay at Life Technologies; 10 μM down to 0.514 nM, 3-fold serial dilutions

| SMILES | IC50 (A673 cells) [nM] | IC50 [1] [nM] | IC50 (CDK7) [nM] |
| --- | --- | --- | --- |
| CN(C)C/C=C/C(=O)N1CCC2(C1)CN([C@H]1CCC[C@@H](Nc3ncc(Cl)c(-c4c[nH]c5ccccc45)n3)C1)C2 | < 500 | < 100 |  |
| C=CC(=O)Nc1cnn([C@H]2CCC[C@@H](Nc3ncc(Cl)c(-c4c[nH]c5ccccc45)n3)C2)c1 | < 500 | < 100 |  |
| C/C=C/C(=O)N1CCC(CN[C@H]2CCC[C@@H](Nc3ncc(Cl)c(-c4c[nH]c5ccccc45)n3)C2)CC1 | < 500 | 100 to 1000 |  |
| C=CC(=O)N1CCN([C@H]2CCC[C@@H](Nc3ncc(C(F)(F)F)c(-c4c[nH]c5ccccc45)n3)C2)CC1 | < 500 | < 100 |  |
| CN(C)C/C=C/C(=O)Nc1cnc(CN[C@H]2CCC[C@@H](Nc3ncc(Cl)c(-c4c[nH]c5ccccc45)n3)C2)nc1 | < 500 | < 100 |  |
| C=CC(=O)N1CCC2(CC1)CC(CN[C@H]1CCC[C@@H](Nc3ncc(Cl)c(-c4c[nH]c5ccccc45)n3)C1)C2 | < 500 | < 100 |  |
| C=CC(=O)N1CCN([C@H]2CCC[C@@H](Nc3ncc(Cl)c(-c4c[nH]c5c(F)cccc45)n3)C2)CC1 | < 500 | < 100 |  |
| C=CC(=O)N1CCC(CN[C@@H]2CC[C@H](Nc3ncc(Cl)c(-c4c[nH]c5ccccc45)n3)C2)CC1 | 500 to 5000 | 100 to 1000 |  |
| C=CC(=O)N1CCC(C(=O)N[C@H]2CCC[C@@H](Nc3ncc(C(F)(F)F)c(-c4c[nH]c5ccccc45)n3)C2)CC1 | < 500 | < 100 |  |
| CN(C)C/C=C/C(=O)N1CCN([C@H]2CCC[C@@H](Nc3ncc(Cl)c(-c4c[nH]c5ccccc45)n3)C2)CC1C(F)(F)F (some centres unmarked) | < 500 | < 100 |  |
| C=CC(=O)N1CCCC(N2CC(Nc3ncc(Cl)c(-c4c[nH]c5ccccc45)n3)C2)C1 (centres unmarked) | < 500 | > 1000 |  |
| C/C=C/C(=O)N1CCN(C2CCC[C@@H](Nc3ncc(Cl)c(-c4c[nH]c5ccccc45)n3)C2)CC1 (some centres unmarked) | < 500 | < 100 |  |
| C=CC(=O)N[C@H]1CCCN([C@@H]2CCC[C@@H](Nc3ncc(Cl)c(-c4c[nH]c5ccccc45)n3)C2)C1 | < 500 | 100 to 1000 |  |
| C=CC(=O)N1CCN([C@H]2CC[C@@H](Nc3ncc(Cl)c(-c4c[nH]c5ccccc45)n3)C2)CC1 | < 500 | 100 to 1000 |  |
| C=CC(=O)NC[C@H]1C[C@@H]1C(=O)N[C@H]1CCC[C@@H](Nc2ncc(Cl)c(-c3c[nH]c4ccccc34)n2)C1 | < 500 | < 100 |  |
| CN(C)C/C=C/C(=O)NC[C@H]1C[C@H]1C(=O)N[C@H]1CCC[C@@H](Nc2ncc(Cl)c(-c3c[nH]c4ccccc34)n2)C1 | < 500 | < 100 |  |
| CN(C)C/C=C/C(=O)N1CCN([C@H]2CCC[C@@H](Nc3ncc(Cl)c(-c4c[nH]c5ccc(F)cc45)n3)C2)CC1 | < 500 | < 100 |  |
| C=CC(=O)Nc1cnc(CN[C@H]2CCC[C@@H](Nc3ncc(Cl)c(-c4c[nH]c5ccccc45)n3)C2)nc1 | < 500 | < 100 |  |
| C=CC(=O)N1CCC2(CC1)CN([C@@H]1CCC[C@@H](Nc3ncc(Cl)c(-c4c[nH]c5ccccc45)n3)C1)C2 | < 500 | < 100 |  |
| CN(C)C/C=C/C(=O)N1CCN([C@H]2CCC[C@@H](Nc3ncc(Cl)c(-c4csc5ccccc45)n3)C2)CC1 | < 500 | 100 to 1000 |  |
| C=CC(=O)N1CCC(CN[C@H]2CCC[C@@H](Nc3ncc(C(F)(F)F)c(-c4c[nH]c5ccccc45)n3)C2)C1 (some centres unmarked) | < 500 | < 100 |  |
| CN(C)C/C=C/C(=O)N1CCN2C[C@@H](Nc3ncc(Cl)c(-c4c[nH]c5ccccc45)n3)C[C@H]2C1 | < 500 | 100 to 1000 |  |
| CN(C)CC=CC(=O)Nc1cnc(CNC2CCCC(Nc3ncc(Cl)c(-c4n[nH]c5ccccc45)n3)C2)nc1 (centres unmarked) | < 500 | < 100 |  |
| C=CC(=O)N1CCCN([C@H]2CCC[C@@H](Nc3ncc(Cl)c(-c4c[nH]c5ccccc45)n3)C2)CC1 | < 500 | < 100 |  |
| C=CC(=O)N1CCC(CN[C@H]2CCC[C@@H](Nc3ncc(CC)c(-c4c[nH]c5ccccc45)n3)C2)C1 (some centres unmarked) | < 500 | 100 to 1000 |  |
| CN(C)C/C=C/C(=O)N1CCC2(C1)CN([C@@H]1CCC[C@@H](Nc3ncc(Cl)c(-c4c[nH]c5ccccc45)n3)C1)C2 | < 500 | < 100 |  |
| CN(C)C/C=C/C(=O)N1CCC(C(=O)N[C@H]2CCC[C@@H](Nc3ncc(Cl)c(-c4c[nH]c5ccccc45)n3)C2)CC1 |  | < 100 | < 100 |
| C=CC(=O)N1CCC(CN[C@H]2CCC[C@@H](Nc3ncc(Cl)c(-c4cn(C)c5ccccc45)n3)C2)CC1 | < 500 | 100 to 1000 |  |
